The values that follow come from patent publication US20250268880A1, “3-(Hydroxy)-Pyridin-4(1H)-One Compounds and Methods of Making and Using the Same” (Georgia Tech Research Corporation, priority 2018, published 2025).

This test concerns Vero (a non-transformed cell line as control). Briefly: Cell viability assay (MTS), Vero. It counts as cell-based. The settings on record: Chlorocebus sabaeus, 72 h, NI = no inhibition, read-out: Antiproliferative Activity IC50 (μM) VERO.

Turning to `Cc1c(O)c(=O)ccn1C1CCC(CC2CCC(n3ccc(=O)c(O)c3C)CC2)CC1` (stereo not shown) [Compound 3g, 1,1′-(Methylenebis(cyclohexane-4,1-diyl))bis(3-hydroxy-2-methylpyridin-4(1H)-one)], the IC50 was > 50 µM.
